Data reported in PubChem BioAssay AID504652 (National Center for Advancing Translational Sciences (NCATS), 2011).
The list shows a part of the results, in another mix than the full data. Active and inactive are the calls of the source. Cut-off read from the data, not from the text of the source: active = activity change below about -30%; inactive = the rest.

By UniProt entry, the sequences of proteins in these tests, tags left out.
UniProt P21728, whole entry: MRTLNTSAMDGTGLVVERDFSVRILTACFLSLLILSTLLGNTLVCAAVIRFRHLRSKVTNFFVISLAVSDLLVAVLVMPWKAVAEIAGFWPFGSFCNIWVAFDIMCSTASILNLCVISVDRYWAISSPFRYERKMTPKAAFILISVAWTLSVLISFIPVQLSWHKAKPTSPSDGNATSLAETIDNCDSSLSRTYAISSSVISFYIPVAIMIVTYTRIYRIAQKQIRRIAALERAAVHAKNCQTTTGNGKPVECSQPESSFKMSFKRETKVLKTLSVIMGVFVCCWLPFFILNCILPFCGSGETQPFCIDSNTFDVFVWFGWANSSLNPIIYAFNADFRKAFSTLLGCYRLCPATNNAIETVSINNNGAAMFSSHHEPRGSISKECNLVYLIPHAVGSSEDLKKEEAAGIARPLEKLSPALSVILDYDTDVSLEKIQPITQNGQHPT

target: D(1A) dopamine receptor (Homo sapiens) (UniProt P21728); assay: Antagonist of Human D 1 Dopamine Receptor: qHTS; settings: HEK293 TREx D1 cells, calcium flux, dopamine EC80; at 10 µM; stronger effect = lower value
From the text: Dopamine receptors (DARs) are involved in the etiology and/or therapy of a number of neuropsychiatric and endocrine disorders. For instance, all receptor-based antiparkinsonian drugs work via stimulating the […] DAR subtype whereas all FDA-approved antipsychotic agents are antagonists of this receptor. […] There are three different types of allosteric modulators that we are seeking, two of which will stimulate or augment receptor signaling, allosteric agonists and potentiators, while the third, allosteric antagonists, will attenuate receptor signaling. The present primary screening assay measures compound antagonism after an EC80 addition of dopamine by tracking calcium flux in a […], inducible Hek293 Trex D1 cell line. NIH Chemical Genomics Center [NCGC] NIH Molecular Libraries Probe Centers Network [MLPCN] MLPCN Grant: NS064831-01 Assay Submitter (PI): David Sibley
Freshly passaged cells are plated in 1536 well black, clear bottom plates at a density of 4000 cells/well in 3 ul of complete media containing 1x tetracycline inducer. After an overnight incubation at 30 C in 5% CO2, cells are loaded with 2 ul of the no wash Calcium Assay Kit (ABD Bioquest) and incubated at room temperature for 30 to 90 minutes. Agonist read: A 10 cycle (1 second/cycle) baseline measurement is taken and then the FDSS online 1536 pintool delivers 23 nl of compound library (as well as dopamine controls) to the plate. The plate is measured for kinetically at 1 cycle/sec for 180 seconds. Following the 180 second read, 1 ul of an EC80 (negative modulation assay) is delivered by an onboard pipette head. Measurements are taken kinetically for an additional 180 seconds.
% is set by controls: 0 for no effect and ±100 for the full control effect.

SMILES	activity change, negative = inhibition
CC1=NCCc2c1[nH]c1ccccc21.O=[N+]([O-])c1cc([N+](=O)[O-])c(O)c([N+](=O)[O-])c1	inactive: 6.1%
COc1ccccc1OP(C)(=O)Nc1cccc(Br)c1 (stereo not given)	inactive: -5.43%
CCOC(=O)c1ccc(NP(C)(=O)Oc2cc(C)cc(C)c2)cc1 (stereo not given)	inactive: -2.42%
Cc1cc(C)cc(OP(C)(=O)Nc2ccc(C)cc2C)c1 (stereo not given)	inactive: -9.49%
Cc1ccc(C)c(NP(C)(=O)Oc2ccccc2)c1 (stereo not given)	inactive: -24.6%
CP(=O)(Nc1cccc(Br)c1)Oc1ccccc1 (stereo not given)	inactive: -7.16%
Cc1cc(C)cc(OP(C)(=O)Nc2ccccn2)c1 (stereo not given)	inactive: 8.45%
O=[N+]([O-])c1cc([N+](=O)[O-])c(-n2nnc3ccccc32)c([N+](=O)[O-])c1	inactive: -9.57%
Cc1nc2ccc3ccccc3c2s1.O=[N+]([O-])c1cc([N+](=O)[O-])c(O)c([N+](=O)[O-])c1	inactive: -4.93%
O=[N+]([O-])c1cc([N+](=O)[O-])c(Nc2nnnn2CCO)c([N+](=O)[O-])c1	inactive: -18.4%
CC1=C2N=C(C=C3N=C(C(C)=C4[N-][C@@](C)([C@@H]5N=C1[C@](C)(CCC(=O)NC[C@@H](C)OP(=O)([O-])O[C@H]1[C@@H](O)[C@@H](n6cnc7cc(C)c(C)cc76)O[C@@H]1CO)[C@H]5CC(N)=O)[C@@](C)(CC(N)=O)[C@@H]4CCC(N)=O)[C@@](C)(CC(N)=O)[C@@H]3CCC(N)=O)C(C)(C)[C@@H]2CCC(N)=O.[C-]#N.[Co+3]	inactive: -15.6%
CN1CCCCC1COC(=O)C1(O)c2ccccc2CCc2ccccc21 (stereo not given)	inactive: -7.73%
COc1ccccc1OP(C)(=O)Nc1c(C)cccc1C (stereo not given)	inactive: -3.15%
CP(=O)(Nc1ccc(SC(F)(F)F)cc1)Oc1ccccc1 (stereo not given)	inactive: 17.9%
CCCOc1ccc(NP(C)(=O)Oc2ccc(Cl)cc2)cc1 (stereo not given)	inactive: 1.26%
CP(=S)(Nn1cnnc1)Oc1ccccc1 (stereo not given)	inactive: 12.3%
CP(=O)(Nc1ccccc1Br)Oc1ccccc1 (stereo not given)	inactive: 3.66%
COc1ccccc1OP(C)(=O)Nc1ccccc1 (stereo not given)	inactive: -7.69%
CP(=O)(Oc1ccccc1)OC(c1ccccc1)C(F)(F)F (stereo not given)	inactive: -9.11%
CP(=O)(Nc1ccc(SC(F)(F)F)cc1)Oc1ccc(Cl)cc1 (stereo not given)	inactive: 1.04%

SMILES	activity change, negative = inhibition
Cc1cccc(C)c1OP(C)(=O)Nc1ccc(SC(F)(F)F)cc1 (stereo not given)	inactive: -5.61%
Cc1cc(C)cc(OP(C)(=O)Nc2ccc(SC(F)(F)F)cc2)c1 (stereo not given)	inactive: 1.79%
CP(=O)(NC(=O)Nc1ccccc1)Oc1ccccc1 (stereo not given)	inactive: -3.21%
CCOC(=O)c1ccc(NP(C)(=O)Oc2ccc(OC)cc2)cc1 (stereo not given)	inactive: 6.58%
CCOP(C)(=S)SCC(=O)NC(C)C(=O)O (stereo not given)	inactive: -2.28%
CP(=O)(Nc1ccccn1)Oc1ccc(Cl)cc1 (stereo not given)	inactive: 24.7%
CCN(CC)CCCOC(=O)C(O)(c1ccccc1)c1ccccc1	inactive: -24.8%
O=[N+]([O-])c1cc([N+](=O)[O-])c(Nc2cccnc2)c([N+](=O)[O-])c1	inactive: -29.8%
O=[N+]([O-])c1ccc2c(c1)C=Nc1ccccc1O2	inactive: -7.64%
Cc1cccc(C)c1OP(C)(N)=O (stereo not given)	inactive: -13.2%
CC(C)(C)c1ccc(OP(C)(=O)Nc2ccc(SC(F)(F)F)cc2)cc1 (stereo not given)	inactive: -6.32%
Cc1ccc(NP(C)(=O)Oc2ccccc2)c(C)c1 (stereo not given)	inactive: -8.62%
COc1ccccc1OP(C)(=O)Nc1ccc(C)cc1 (stereo not given)	inactive: -7.14%
CCOC(=O)c1ccc(NP(C)(=O)Oc2ccccc2)cc1 (stereo not given)	inactive: 6.11%
Cc1cc(C)cc(OP(C)(N)=O)c1 (stereo not given)	inactive: -7.05%
COc1ccc(OP(C)(=O)Nc2cccc(F)c2)cc1 (stereo not given)	inactive: -7.06%
COc1ccccc1OP(C)(=O)Nc1cc(Cl)ccc1C (stereo not given)	inactive: 28.1%
Cc1cc(C)cc(OP(C)(=O)Nc2cccc(C(F)(F)F)c2)c1 (stereo not given)	inactive: -19.9%
COc1ccccc1OP(C)(=O)Nc1ccc(C)c(C)c1 (stereo not given)	inactive: 0.729%
COc1ccc(OP(C)(=O)Nc2ccccc2Br)cc1 (stereo not given)	inactive: -17.7%

SMILES	activity change, negative = inhibition
Cc1nc2ccc3ccccc3c2o1.O=[N+]([O-])c1cc([N+](=O)[O-])c(O)c([N+](=O)[O-])c1	inactive: -19.3%
CP(=O)(OCCOc1ccccc1)OCCOc1ccccc1	inactive: 12.1%
CP(=O)(Nc1ccc(Cl)cc1Cl)Oc1ccccc1 (stereo not given)	inactive: -8.32%
COc1ccccc1OP(C)(=O)Nc1ccc(Br)cc1 (stereo not given)	inactive: 2.55%
COc1ccc(OP(C)(=O)Nc2ccccn2)cc1 (stereo not given)	inactive: -6.06%
CN(C)CCOC(=O)C(O)(c1ccccc1)C1CCCC1 (stereo not given)	inactive: -4.53%
O=[N+]([O-])c1cc([N+](=O)[O-])c(Nc2ccccn2)c([N+](=O)[O-])c1	inactive: -14.1%
Cc1c(NP(C)(=O)Oc2ccc(C(C)C)cc2)c(=O)n(-c2ccccc2)n1C (stereo not given)	inactive: -20.2%
COc1ccccc1OP(C)(=O)Nc1ccc(C)cc1C (stereo not given)	inactive: -8.05%
CP(=O)(Nc1ccccn1)Oc1ccccc1 (stereo not given)	inactive: 7.62%
CCc1ccc(OP(C)(=O)O)cc1	inactive: 1.91%
COc1ccc(OP(C)(=O)Nc2ccc(Br)cc2)cc1 (stereo not given)	inactive: -2.56%
CCN(CC)CC(O)COC(=O)C(O)(c1ccccc1)C1CCCCC1 (stereo not given)	inactive: -13.9%
O=C(OCCCN1CCCC1)C(O)(c1ccccc1)C1CCCCC1 (stereo not given)	inactive: 4.33%
COc1ccccc1OP(C)(=O)Nc1c(C)n(C)n(-c2ccccc2)c1=O (stereo not given)	inactive: -7.66%
CCc1ccc(OP(C)(=O)Nc2cccnc2)cc1 (stereo not given)	inactive: 3.99%
CP(=O)(Oc1ccccc1)N1CCOC1=O (stereo not given)	inactive: 0.208%
CC(C)(C)c1ccc(OP(C)(=O)O)cc1	inactive: -1.41%
COc1ccccc1OP(C)(=O)Nc1ccccc1Br (stereo not given)	inactive: -20.1%
CP(=O)(Nc1ccc(Cl)cc1)Oc1ccc(F)cc1 (stereo not given)	inactive: 7.69%
